Source: patent US8906884B2, “Method of treating graft-rejection using dextran sulfate” (TX Medic AB, priority 2002, dated 2014)

Experiments:
[1] = test system: adult porcine islets (API)
[2] = test system: IBMIR triggered by API in fresh human blood; conditions: in words
[3] = API cultured 3 days with 0.01 mg/ml
[4] = API cultured 3 days with 0.1 mg/ml
[5] = API cultured 3 days with 1 mg/ml

## Low molecular weight dextran sulfate [LMW-DS]
[1]; [3]
  ADP/ATP ratio: 0.08 ± 0.03
  Insulin/DNA ratio: 66.1 ± 5.8 pmol/µg
  Stimulation Index in SGS test: 2.26 ± 0.51
  Survival rate (% IEQ): 43.6 ± 6.7 % IEQ
[1]; [4]
  ADP/ATP ratio: 0.10 ± 0.03
  Insulin/DNA ratio: 69.1 ± 9.6 pmol/µg
  Stimulation Index in SGS test: 3.22 ± 0.89
  Survival rate (% IEQ): 58.4 ± 4.3 % IEQ
[1]; [5]
  ADP/ATP ratio: 0.11 ± 0.01
  Insulin/DNA ratio: 71.6 ± 7.4 pmol/µg
  Stimulation Index in SGS test: 1.42 ± 0.35
  Survival rate (% IEQ): 68.9 ± 2.6 % IEQ
[1]; in words
  Morphology of treated API versus API cultured without LMW-DS: no difference
[2]
  Direct activation of factor XII: not directly activated

Where two headings read alike, the source gives them in different places.
